The assay relates to tyrosine hydroxylase (TH). Put plainly: TH activity (DOPA levels after NSD-1015) in PC12 cells. The class given is cell-based. Conditions: 10 μM rottlerin 3 hr, 2 mM NSD-1015. The method, then:
PC12 cells, differentiated N27 dopaminergic cells and primary mesencephalic neurons were exposed to 1-10 μM rottlerin for the duration of the experiment. DMSO (0.01%) was used as vehicle control. PKCδ-DN- and Lac Z-expressing N27 cells were only treated with 0.01% DMSO. […] Untreated or vehicle treated cells were used as control samples.

In turn, `CC(=O)c1c(O)c(C)c(O)c(Cc2c(O)c3c(c(C(=O)/C=C/c4ccccc4)c2O)OC(C)(C)C=C3)c1O` [rottlerin] displayed a TH activity of 2067±43.83 pg DOPA/10^6 cells/hr.
